Measured values: US10272087B2, “Pteridines as FGFR inhibitors” (ASTEX THERAPEUTICS LIMITED, priority 2012, dated 2019)

Columns and labels:
Assay in all cases: cells
[1] = system: Ba/F3-FGFR1-transfected cells; conditions: read-out: BAF3-FGFR1 (MIN IL3 pIC50) (converted)
[2] = system: Ba/F3-FGFR3-transfected cells; conditions: read-out: BAF3-FGFR3 (MIN IL3 pIC50) (converted)
[3] = system: Ba/F3-KDR-transfected cells; conditions: read-out: BAF3-KDR (MIN IL3 pIC50) (converted)
[4] = system: Ba/F3-FGFR4-transfected cells; conditions: read-out: BAF3-FGFR4 (pIC50) (converted)

SMILES | IC50 [1] | IC50 [2] | IC50 [3] | IC50 [4]
COc1cc(OC)c(F)c(N(Cc2nccn2S(=O)(=O)N(C)C)c2ncc3ncc(-c4cnn(C)c4)nc3n2)c1F [Compound 1] | 100 nM | 100 nM | 7940 nM | 1580 nM
COc1cc(OC)c(F)c(N(Cc2ncc[nH]2)c2ncc3ncc(-c4cnn(C)c4)nc3n2)c1F [Compound 2] | – | ~7.94 nM | ~794 nM | –
COc1cc(OC)c(F)c(N(C[C@H]2CCC(=O)N2)c2ncc3ncc(-c4cnn(C)c4)nc3n2)c1 [Compound 10] | – | – | > 10000 nM | –
COc1cc(OC)c(F)c(N(C[C@@H]2CCC(=O)N2)c2ncc3ncc(-c4cnn(C)c4)nc3n2)c1 [Compound 11] | – | – | > 10000 nM | –
COc1cc(OC)c(F)c(N(Cc2ncc[nH]2)c2ncc3ncc(-c4cnn(C)c4)nc3n2)c1 [Compound 13] | – | – | 3980 nM | –
